Experimental data: patent publication US20180360972A1, “THERAPEUTIC COMPOUNDS” (REGENTS OF THE UNIVERSITY OF MINNESOTA, priority 2017, published 2018)

By UniProt entry, the sequences of proteins in these tests, tags left out.
UniProt P32245, whole entry: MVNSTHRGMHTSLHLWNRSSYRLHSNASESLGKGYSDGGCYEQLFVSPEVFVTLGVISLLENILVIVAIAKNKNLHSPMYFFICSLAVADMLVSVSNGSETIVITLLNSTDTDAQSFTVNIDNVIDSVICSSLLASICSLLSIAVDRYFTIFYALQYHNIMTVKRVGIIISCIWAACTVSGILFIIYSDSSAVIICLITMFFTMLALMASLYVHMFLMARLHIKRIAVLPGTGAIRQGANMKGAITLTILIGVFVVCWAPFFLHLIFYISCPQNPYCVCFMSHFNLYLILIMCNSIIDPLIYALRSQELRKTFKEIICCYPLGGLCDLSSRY

Assays:
[1] = target: T1, hMC4R (Homo sapiens, UniProt P32245); test: PRESTO-Tango β-arrestin recruitment assay; assay type: cell-based; parameters: Flag; expressed in transfected cells; conditions: relative to NDP-MSH control; up to 10 μM
[2] = target: T1, hMC4R; conditions: 1 μM; not significant; Nickolls et al. 2006; cited from earlier work

β-arrestin recruitment efficacy (in words) [1] | Substance | decrease of mean BRET signal compared to basal [2]
maximal β-arrestin recruitment | Ac-His-DPhe-Arg-Trp-NH2 [CJL-1-14] | –
– | α-MSH | approximately 20%
